Experimental findings from ChEMBL document CHEMBL1140697, “Synthesis and evaluation in monkey of two sensitive 11C-labeled aryloxyanilide ligands for imaging brain peripheral benzodiazepine receptors in vivo” (J Med Chem, 2008) are described below.

The chains behind the UniProt entries cited, without tags or fusion partners.
UniProt P30536, whole entry: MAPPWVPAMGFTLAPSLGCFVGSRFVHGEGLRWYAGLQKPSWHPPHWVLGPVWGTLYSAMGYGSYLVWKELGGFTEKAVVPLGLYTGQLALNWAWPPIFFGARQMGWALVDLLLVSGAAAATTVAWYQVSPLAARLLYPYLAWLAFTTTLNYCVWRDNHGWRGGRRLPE

One may read the Ki as the equilibrium dissociation constant of an inhibitor or competing ligand from its target. A high value points to weaker binding.

This assay concerns the target Translocator protein (Homo sapiens, UniProt P30536). Nature of the assay: Binding affinity to PBR in human mitochondrial tissue. An outline of the steps: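 Mitochondrial fractions (rat, rhesus monkey or human) were incubated with [³H]PK 11195 (0.38 nM final) and eight test-ligand concentrations for 2 h at 4 °C. Samples were filtered on PEI-presoaked GF/B filters, washed with ice-cold buffer and counted. Nonspecific binding was taken at the top inhibitor level (0.1–0.3 µM). Triplicate curves were run in two independent experiments. IC₅₀ was converted to K_i by Cheng–Prusoff, using K_D from homologous PK 11195 displacement.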

`CC[C@H](C)N([11CH3])C(=O)c1cc2ccccc2c(-c2ccccc2Cl)n1` returned a Ki of 4.5 nM.
